# Literature values in US10537567B2, “Kinase inhibitors for treatment of disease” (BioAxone BioSciences, Inc., priority 2017, dated 2020).
# Target: PKA (Homo sapiens, UniProt P17612)
# Details: cited from earlier work
smiles,measurement,value
O=c1[nH]ccc2c(S(=O)(=O)N3CCCNCC3)cccc12 [hydroxyfasudil],Binding to PKA,all bind PKA
